# Data taken from article PMC3361267 (Journal of Medicinal Chemistry, 2012).
# Experiments:
# OATP2B1 = molecular target: T1, OATP2B1 (Homo sapiens, UniProt O94956); settings: 10 μM inhibitor
# T1 sequence (O94956 1-709): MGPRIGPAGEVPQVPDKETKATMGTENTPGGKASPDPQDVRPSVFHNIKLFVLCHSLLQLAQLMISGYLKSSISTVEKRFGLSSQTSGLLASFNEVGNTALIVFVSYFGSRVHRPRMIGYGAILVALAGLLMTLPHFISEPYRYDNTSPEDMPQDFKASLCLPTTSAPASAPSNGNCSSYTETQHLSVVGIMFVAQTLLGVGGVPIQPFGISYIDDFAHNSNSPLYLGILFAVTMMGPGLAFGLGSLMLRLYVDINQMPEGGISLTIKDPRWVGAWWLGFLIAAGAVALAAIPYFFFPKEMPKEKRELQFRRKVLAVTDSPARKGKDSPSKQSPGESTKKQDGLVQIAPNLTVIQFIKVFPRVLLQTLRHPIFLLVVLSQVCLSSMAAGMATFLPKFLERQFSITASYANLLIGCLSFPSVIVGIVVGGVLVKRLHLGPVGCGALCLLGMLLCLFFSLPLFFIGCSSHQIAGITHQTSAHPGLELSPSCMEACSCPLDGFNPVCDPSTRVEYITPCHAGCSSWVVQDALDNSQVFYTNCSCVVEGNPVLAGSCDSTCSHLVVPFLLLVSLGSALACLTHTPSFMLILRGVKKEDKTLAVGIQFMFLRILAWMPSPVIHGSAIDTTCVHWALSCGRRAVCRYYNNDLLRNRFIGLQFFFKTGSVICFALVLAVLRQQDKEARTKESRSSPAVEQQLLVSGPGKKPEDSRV
# All OATPs = system: All OATPs; design: species or system human; settings: 10 μM inhibitor
reduction of atorvastatin uptake by OATP2B1 (OATP2B1),increase of the OATP2B1 contribution to the uptake CL of atorvastatin (OATP2B1),SMILES,"reduction of the overall CLint,uptake of atorvastatin (All OATPs)"
95%,,"C#Cc1cccc(Nc2ncnc3cc(OCCOC)c(OCCOC)cc23)c1 [erlotinib, Erlotinib]",32%
,up to 6 fold,"CO[C@H]1/C=C/O[C@@]2(C)Oc3c(C)c(O)c4c(O)c(c(/C=N/N5CCN(C)CC5)c(O)c4c3C2=O)NC(=O)/C(C)=C\C=C\[C@H](C)[C@H](O)[C@@H](C)[C@@H](O)[C@@H](C)[C@H](OC(C)=O)[C@@H]1C [rifampicin, Rifampin]",
